T1: CD19 (Homo sapiens, UniProt P15391)
T1 sequence (P15391 20-556): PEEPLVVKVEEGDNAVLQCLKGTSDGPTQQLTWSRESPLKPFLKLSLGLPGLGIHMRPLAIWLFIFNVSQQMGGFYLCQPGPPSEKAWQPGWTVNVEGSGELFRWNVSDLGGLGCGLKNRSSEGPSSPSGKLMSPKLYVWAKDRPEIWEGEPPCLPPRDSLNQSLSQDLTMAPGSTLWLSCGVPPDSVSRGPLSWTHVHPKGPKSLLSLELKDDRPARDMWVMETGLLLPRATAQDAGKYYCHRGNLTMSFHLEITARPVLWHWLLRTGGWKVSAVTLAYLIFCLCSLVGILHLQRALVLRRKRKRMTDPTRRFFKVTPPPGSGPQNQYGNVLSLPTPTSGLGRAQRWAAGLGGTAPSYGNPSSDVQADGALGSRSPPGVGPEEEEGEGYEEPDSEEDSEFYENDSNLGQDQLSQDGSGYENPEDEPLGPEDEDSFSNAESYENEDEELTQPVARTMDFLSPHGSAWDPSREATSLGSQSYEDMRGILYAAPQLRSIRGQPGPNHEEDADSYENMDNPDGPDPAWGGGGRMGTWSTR

B1: hNEMO-K277A-DeltaV249-K255: mutant lacking aminoacid residues V249-K255 of human NEMO and carrying the K277A mutation (protein)
chain: MNRHLWKSQLCEMVQPSGGPAADQDVLGEESPLGKPAMLHLPSEQGAPETLQRCLEENQELRDAIRQSNQILRERCEELLHFQASQREEKEFLMCKFQEARKLVERLGLEKLDLKRQKEQALREVEHLKRCQQQMAEDKASVKAQVTSLLGELQESQSRLEAATKECQALEGRARAASEQARQLESEREALQQQHSVQVDQLRMQGQSVEAALRMERQAASEEKRKLAQLQVAYHQLFQEYDNHIKSSRGMQLEDLKQQLQQAEEALVAAQEVIDKLKEEAEQHKIVMETVPVLKAQADIYKADFQAERQAREKLAEKKELLQEQLEQLQREYSKLKASCQESARIEDMRKRHVEVSQAPLPPAPAYLSSPLALPSQRRSPPEEPPDFCCPKCQYQAPDMDTLQIHVMECIE

Columns and labels:
CD19 = target: T1, CD19; assay: CAR-T cell in vitro and in vivo assay panel (IL2 production, proliferation, exhaustion, in vivo expansion, anti-tumor activity); design: endogenous in cells; host or cells: RAJI cells in vitro; Nalm-6-Luc cells xenografted in NSG mice
NF-κB = assay: p65 nuclear translocation, nuclear NF-κB and AP1 binding activity in transduced bone marrow-derived dendritic cells; format: cell-based, mouse; settings: for p65 (RelA) localisation in DCs: level similar to LPS-treated DCs, not in untreated or control vector DCs
Description: Transduction of DCs and flow cytometry. Murine bone marrow-derived Dendritic cells (DCs) are prepared as previously described. Immature DCs are transduced on day 4 at an MOT of 20 with lentiviral vectors as described (Rowe H M et al, Molecular Therapy, 13, 2, 2006) and fed every 4 days with fresh medium containing granulocyte-macrophage colony-stimulating factor (50 ng/ml; from Peprotech). On day 5 posttransduction, DCs are harvested, washed, and blocked for Fc receptors before surface staining for maturation markers with the following biotin-conjugated Abs: anti-CD11c, anti-CD86, and anti-I-Ab (MHC class II) (all from BD Pharmingen); anti-CD40 (from Serotec); and anti-CD80, anti-ICAM-1, and anti-Kb (MHC class I) (all from eBioscience). A hamster isotype control Ab (biotin conjugated) is purchased from BD Pharmingen. Abs are then labeled with streptavidin RPE Cy-5 2o reagent (DakoCytomation) before flow cytometry. Lipopolysaccharide (LPS) (50 ng/ml) (Sigma) is added to untransduced DCs and left overnight as a positive control for maturation. Zymosan A (10 μg/ml) treatment (for 30 min at 37° C.) is used as a control for ERK activation.
Mouse BM-derived Dendritic cells (DCs) are infected with the lentivectors encoding human NEMO-K277A, human NEMO-K277A-deltaV249-K255, mouse NEMO-K270A and IKK2-S177E-S181E either alone or in combination with Ii-OVA.

Molecule	activity of T cells with K277A mutation induced in the endogenous NEMO gene (CD19; gene editing, compared to control T cells lacking the mutation)	in vitro and in vivo performance of CAR-T cells, module on a separate lentiviral vector (CD19; two lentiviral vectors, MOI 5, CAR:hNEMO-K277A 1:1 to 1:10)	activation of the MAPK pathway (nuclear AP1 binding activity) (NF-κB)	nuclear NF-κB binding activity in transduced DCs (NF-κB)	p65 (RelA) localisation in DCs (NF-κB)	cytokine production, proliferation, in vivo expansion and anti-tumor activity of CAR-T cells (CD19)
hNEMO-K277A: human NEMO mutant K277A, constitutively active selective NF-κB activator used as accessory module	enhanced proliferation, cytokine production, expansion, long term persistence in vivo and anti-tumor activity	improve the in vitro and in vivo performance of CAR-T cells	no affect on the activation of the MAPK pathway	Increased nuclear NF-κB binding activity	nuclear translocation of p65 (RelA)	
B1			no affect on the activation of the MAPK pathway	Increased nuclear NF-κB binding activity	nuclear translocation of p65 (RelA)	increased cytokine production, proliferation, in vivo expansion and anti-tumor activity
